# Binding of CDR-mutated scFvs to a peptide of the spike HR2 region

Reference: Engelhart et al. 2022, doi:10.1038/s41597-022-01779-4. File: FLAb, binding data.

Target peptide (SARS-CoV-2 spike, HR2 region): PDVDLGDISGINAS

Ab-14 is the parent antibody, in scFv form: VH, then three GGGGS repeats, then VL. The heavy chain is unchanged in all variants.
VH: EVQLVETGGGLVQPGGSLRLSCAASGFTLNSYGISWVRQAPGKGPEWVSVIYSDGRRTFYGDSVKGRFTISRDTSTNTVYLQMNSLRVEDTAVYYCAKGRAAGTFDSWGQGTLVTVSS
VL: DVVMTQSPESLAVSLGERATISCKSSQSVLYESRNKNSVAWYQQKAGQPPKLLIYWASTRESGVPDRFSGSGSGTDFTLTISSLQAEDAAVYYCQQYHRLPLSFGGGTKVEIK

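Phage display of a naive human antibody library on the peptide gave the parent. Variants in AAYL50 differ from the parent at up to three CDR positions; double and triple changes were sampled at random. In AlphaSeq, yeast of one mating type display the scFv and yeast of the other type display the target. Mating (16 h, 30 °C) was followed by selection of diploids and sequencing of their barcodes. The ratio of observed to expected reads was calibrated, replicate by replicate, on BCL2-family standards whose Kd was known from biolayer interferometry. Mating was done three times.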

Positions count from residue 1 of the parent VL; V29F puts F in place of V. The read-out is the apparent dissociation constant on a log10 scale (nM): the lower, the stronger. Replicates are averaged; those with no signal do not enter the mean. Where no diploid with the target was found in that replicate, the entry reads "n.d.": below detection, most likely a poor binder, though not proof of it. Parent in this assay: reference entry 0.65, copy in this library 1.68. Nonspecific signal, from three strains lacking the peptide, appeared in 18% of pairings of library AAYL50, centred on 4.19 (5% of these signals below 2.99); values are not corrected for it. Also given: how often the same scFv was detected with the empty control strains, with their mean in brackets.

{"changes": "V29F/W56I/Q96S", "log10 Kd (nM) by replicate": "3.67 n.d. n.d.", "mean, log10 nM": "3.67", "control signals": "1 of 9 (5.00)"}
{"changes": "Q27P/S28R", "log10 Kd (nM) by replicate": "1.04 1.27 1.25", "mean, log10 nM": "1.19", "control signals": "3 of 9 (4.97)"}
{"changes": "L30A/R60V/L100Y", "log10 Kd (nM) by replicate": "2.78 2.38 3.04", "mean, log10 nM": "2.73", "control signals": "0 of 9"}
{"changes": "S28P/V29D/Q95E", "log10 Kd (nM) by replicate": "1.59 1.33 1.40", "mean, log10 nM": "1.44", "control signals": "2 of 9 (3.52)"}
{"changes": "Q27D/W56N/L102D", "log10 Kd (nM) by replicate": "6.39 n.d. n.d.", "mean, log10 nM": "6.39", "control signals": "2 of 9 (4.01)"}
{"changes": "S58Y/T59Y/R99V", "log10 Kd (nM) by replicate": "1.73 1.55 2.12", "mean, log10 nM": "1.80", "control signals": "0 of 9"}
{"changes": "A40P/T59S", "log10 Kd (nM) by replicate": "n.d. 5.06 4.27", "mean, log10 nM": "4.66", "control signals": "4 of 9 (4.50)"}
{"changes": "K24N/E32I/H98S", "log10 Kd (nM) by replicate": "4.30 4.04 2.97", "mean, log10 nM": "3.77", "control signals": "6 of 9 (4.71)"}
{"changes": "K36M/N37Y/A57E", "log10 Kd (nM) by replicate": "3.14 2.57 2.50", "mean, log10 nM": "2.74", "control signals": "5 of 9 (4.98)"}
{"changes": "L100S/L102A", "log10 Kd (nM) by replicate": "2.91 3.91 4.10", "mean, log10 nM": "3.64", "control signals": "4 of 9 (4.51)"}
{"changes": "V29D/E32V/N37E", "log10 Kd (nM) by replicate": "1.39 1.57 1.53", "mean, log10 nM": "1.50", "control signals": "2 of 9 (3.82)"}
{"changes": "S33D/P101N/S103T", "log10 Kd (nM) by replicate": "0.61 0.86 0.84", "mean, log10 nM": "0.77", "control signals": "0 of 9"}
{"changes": "S28R/S38W", "log10 Kd (nM) by replicate": "n.d. n.d. n.d.", "mean, log10 nM": "n.d.", "control signals": "0 of 9"}
{"changes": "Y31Q/R34N/L100I", "log10 Kd (nM) by replicate": "1.58 1.58 2.42", "mean, log10 nM": "1.86", "control signals": "2 of 9 (3.77)"}
{"changes": "S25F/K36E", "log10 Kd (nM) by replicate": "-0.36 0.03 -0.24", "mean, log10 nM": "-0.19", "control signals": "3 of 9 (3.49)"}
{"changes": "E32I/R34W/S38A", "log10 Kd (nM) by replicate": "n.d. n.d. n.d.", "mean, log10 nM": "n.d.", "control signals": "0 of 9"}
{"changes": "S25R/E32T/H98Y", "log10 Kd (nM) by replicate": "1.01 1.36 1.60", "mean, log10 nM": "1.32", "control signals": "2 of 9 (3.33)"}
{"changes": "S25G/Q27E/S38K", "log10 Kd (nM) by replicate": "1.87 2.50 2.45", "mean, log10 nM": "2.27", "control signals": "0 of 9"}
{"changes": "L30N/S33H/N37F", "log10 Kd (nM) by replicate": "1.64 1.99 1.70", "mean, log10 nM": "1.77", "control signals": "0 of 9"}

A selection of 2 entries from above:

changes	log10 Kd (nM) by replicate	mean, log10 nM	control signals
K36M/N37Y/A57E	3.14 2.57 2.50	2.74	5 of 9 (4.98)
S28R/S38W	n.d. n.d. n.d.	n.d.	0 of 9